From paper PMC6274353, “The Blood-Brain Barrier Permeability of Lignans and Malabaricones from the Seeds of Myristica fragrans in the MDCK-pHaMDR Cell Monolayer Model” (Molecules, 2016) come the findings set out here.

The structures appear in SMILES notation.

The series relates to MDCK-pHaMDR cell monolayer. Kind of series: bidirectional transport across the MDCK-pHaMDR cell monolayer (in vitro BBB model). The note with it: time-dependency (30–180 min, 100 µM) and concentration-dependency (25–100 µM, 90 min) experiments.

With `C=CCc1cc(OC)c(O[C@@H](C)[C@H](O)c2ccc(O)c(OC)c2)c(OC)c1` [Compound 7, myrislignan], the primary transport mechanism result was “passive diffusion”.
